Test system: venous thromboembolism (VTE)
Test: Prospective randomized trial for prevention of venous thromboembolic events after total knee replacement
Details: Enoxaparin 30 mg bid

## Enoxaparin [reference compound]
  Major Bleeds %: 2.3%
